Reference: ChEMBL document CHEMBL1944596, “7,8-dichloro-1-oxo-β-carbolines as a versatile scaffold for the development of potent and selective kinase inhibitors with unusual binding modes” (J Med Chem, 2012)

Protein sequences, listed by entry. Tags and fused reporters are not part of them. Lines headed by an entry give the natural chain unless they say otherwise; changes in a name come on top.
UniProt P08581: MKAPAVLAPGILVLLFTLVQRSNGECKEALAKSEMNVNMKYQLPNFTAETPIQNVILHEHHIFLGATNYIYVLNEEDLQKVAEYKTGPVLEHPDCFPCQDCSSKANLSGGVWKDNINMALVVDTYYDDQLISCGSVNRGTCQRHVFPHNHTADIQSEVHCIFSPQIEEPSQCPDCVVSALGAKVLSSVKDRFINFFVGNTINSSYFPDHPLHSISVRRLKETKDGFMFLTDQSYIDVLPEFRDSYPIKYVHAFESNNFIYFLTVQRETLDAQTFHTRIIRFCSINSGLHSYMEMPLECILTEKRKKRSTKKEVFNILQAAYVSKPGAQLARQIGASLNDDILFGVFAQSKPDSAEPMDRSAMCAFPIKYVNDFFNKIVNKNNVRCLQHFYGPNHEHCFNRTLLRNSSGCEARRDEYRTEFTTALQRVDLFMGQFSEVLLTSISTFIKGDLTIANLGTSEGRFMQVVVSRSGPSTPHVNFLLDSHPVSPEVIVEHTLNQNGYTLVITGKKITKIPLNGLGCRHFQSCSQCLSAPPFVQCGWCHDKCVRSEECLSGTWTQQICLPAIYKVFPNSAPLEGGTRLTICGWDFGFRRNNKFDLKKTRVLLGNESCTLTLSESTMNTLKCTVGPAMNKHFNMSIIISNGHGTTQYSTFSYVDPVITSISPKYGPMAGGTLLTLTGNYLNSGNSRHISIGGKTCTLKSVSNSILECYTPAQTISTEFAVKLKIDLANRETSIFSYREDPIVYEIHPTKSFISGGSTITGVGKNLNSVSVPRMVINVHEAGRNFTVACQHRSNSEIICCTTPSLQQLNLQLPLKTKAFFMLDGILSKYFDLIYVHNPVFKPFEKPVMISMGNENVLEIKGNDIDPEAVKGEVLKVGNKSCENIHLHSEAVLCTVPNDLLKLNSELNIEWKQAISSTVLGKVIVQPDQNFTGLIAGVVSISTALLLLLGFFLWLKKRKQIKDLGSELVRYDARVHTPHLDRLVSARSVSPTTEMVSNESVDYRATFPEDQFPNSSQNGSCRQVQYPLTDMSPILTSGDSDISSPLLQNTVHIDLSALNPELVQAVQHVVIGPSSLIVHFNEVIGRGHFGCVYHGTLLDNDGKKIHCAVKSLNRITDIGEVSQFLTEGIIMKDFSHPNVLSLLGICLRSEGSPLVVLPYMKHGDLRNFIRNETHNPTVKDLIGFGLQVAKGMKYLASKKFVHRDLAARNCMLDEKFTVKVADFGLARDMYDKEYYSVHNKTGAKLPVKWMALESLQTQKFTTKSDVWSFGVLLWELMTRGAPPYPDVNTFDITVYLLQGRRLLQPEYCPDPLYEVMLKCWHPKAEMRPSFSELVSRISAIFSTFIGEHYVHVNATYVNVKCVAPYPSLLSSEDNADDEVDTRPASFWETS
UniProt P11362, whole entry: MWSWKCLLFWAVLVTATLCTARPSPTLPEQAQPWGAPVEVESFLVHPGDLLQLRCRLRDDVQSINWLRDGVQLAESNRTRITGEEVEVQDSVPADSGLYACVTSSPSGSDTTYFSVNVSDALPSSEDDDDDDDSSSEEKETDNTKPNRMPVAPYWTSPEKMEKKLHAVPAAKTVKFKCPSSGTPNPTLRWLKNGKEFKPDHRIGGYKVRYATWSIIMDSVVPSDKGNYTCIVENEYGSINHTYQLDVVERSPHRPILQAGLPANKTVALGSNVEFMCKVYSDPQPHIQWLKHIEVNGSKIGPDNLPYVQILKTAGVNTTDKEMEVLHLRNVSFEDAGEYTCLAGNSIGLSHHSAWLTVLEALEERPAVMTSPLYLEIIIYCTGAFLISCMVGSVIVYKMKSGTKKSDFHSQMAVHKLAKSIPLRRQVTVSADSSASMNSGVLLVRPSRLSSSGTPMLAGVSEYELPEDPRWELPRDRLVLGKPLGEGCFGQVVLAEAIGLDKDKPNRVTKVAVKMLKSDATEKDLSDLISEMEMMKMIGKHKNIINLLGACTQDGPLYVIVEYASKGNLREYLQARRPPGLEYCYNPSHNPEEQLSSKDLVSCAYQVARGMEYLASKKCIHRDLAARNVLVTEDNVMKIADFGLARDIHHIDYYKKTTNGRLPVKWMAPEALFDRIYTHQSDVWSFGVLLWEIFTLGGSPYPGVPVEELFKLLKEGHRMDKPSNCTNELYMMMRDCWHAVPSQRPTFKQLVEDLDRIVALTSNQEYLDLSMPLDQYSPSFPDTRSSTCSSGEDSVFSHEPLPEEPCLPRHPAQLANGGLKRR
UniProt P54764, whole entry: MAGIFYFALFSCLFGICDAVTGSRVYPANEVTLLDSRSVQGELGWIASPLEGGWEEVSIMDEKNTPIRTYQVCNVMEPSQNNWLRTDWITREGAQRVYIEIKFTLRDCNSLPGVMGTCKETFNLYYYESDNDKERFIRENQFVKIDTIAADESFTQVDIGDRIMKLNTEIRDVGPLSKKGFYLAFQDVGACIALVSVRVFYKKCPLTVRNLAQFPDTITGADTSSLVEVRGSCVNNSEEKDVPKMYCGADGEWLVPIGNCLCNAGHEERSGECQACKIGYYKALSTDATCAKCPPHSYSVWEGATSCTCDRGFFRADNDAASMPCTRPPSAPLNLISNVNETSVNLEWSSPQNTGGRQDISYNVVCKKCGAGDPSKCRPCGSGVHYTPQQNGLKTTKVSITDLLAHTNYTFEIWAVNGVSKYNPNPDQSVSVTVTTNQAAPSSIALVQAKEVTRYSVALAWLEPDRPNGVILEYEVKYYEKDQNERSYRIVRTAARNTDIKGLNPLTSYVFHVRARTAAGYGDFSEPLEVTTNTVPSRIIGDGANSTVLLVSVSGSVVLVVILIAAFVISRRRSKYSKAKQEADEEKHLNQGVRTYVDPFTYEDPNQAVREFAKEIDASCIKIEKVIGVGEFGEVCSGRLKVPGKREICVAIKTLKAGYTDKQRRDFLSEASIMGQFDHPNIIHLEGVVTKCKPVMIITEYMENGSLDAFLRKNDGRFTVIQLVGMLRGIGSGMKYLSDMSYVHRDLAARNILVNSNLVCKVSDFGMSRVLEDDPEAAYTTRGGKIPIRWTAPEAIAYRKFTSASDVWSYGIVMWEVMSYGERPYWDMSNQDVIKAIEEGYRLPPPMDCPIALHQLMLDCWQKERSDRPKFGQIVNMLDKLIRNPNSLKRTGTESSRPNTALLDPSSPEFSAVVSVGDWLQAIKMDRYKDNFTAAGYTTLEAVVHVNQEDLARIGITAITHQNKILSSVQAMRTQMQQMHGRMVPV
UniProt P21802, whole entry: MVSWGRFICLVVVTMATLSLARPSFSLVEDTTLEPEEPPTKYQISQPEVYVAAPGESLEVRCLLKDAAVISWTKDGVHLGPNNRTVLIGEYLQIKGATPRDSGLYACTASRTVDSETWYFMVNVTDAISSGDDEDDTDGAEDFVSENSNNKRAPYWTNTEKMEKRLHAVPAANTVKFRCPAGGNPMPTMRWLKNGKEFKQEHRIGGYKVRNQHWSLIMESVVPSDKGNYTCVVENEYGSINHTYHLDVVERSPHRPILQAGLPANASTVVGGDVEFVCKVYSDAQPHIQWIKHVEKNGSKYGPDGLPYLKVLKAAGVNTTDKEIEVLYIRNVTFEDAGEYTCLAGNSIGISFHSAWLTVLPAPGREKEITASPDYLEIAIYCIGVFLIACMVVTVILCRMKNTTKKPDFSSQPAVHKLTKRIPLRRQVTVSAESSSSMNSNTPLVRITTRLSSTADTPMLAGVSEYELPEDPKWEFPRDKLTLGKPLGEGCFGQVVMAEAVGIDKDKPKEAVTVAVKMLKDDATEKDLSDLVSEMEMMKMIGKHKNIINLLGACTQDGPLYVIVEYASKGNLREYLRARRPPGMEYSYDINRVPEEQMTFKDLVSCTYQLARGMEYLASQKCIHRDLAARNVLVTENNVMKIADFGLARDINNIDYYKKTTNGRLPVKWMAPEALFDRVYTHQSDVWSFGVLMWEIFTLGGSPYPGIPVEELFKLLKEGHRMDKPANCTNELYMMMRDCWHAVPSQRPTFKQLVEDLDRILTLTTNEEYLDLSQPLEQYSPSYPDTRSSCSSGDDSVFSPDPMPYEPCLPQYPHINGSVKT
UniProt P12931: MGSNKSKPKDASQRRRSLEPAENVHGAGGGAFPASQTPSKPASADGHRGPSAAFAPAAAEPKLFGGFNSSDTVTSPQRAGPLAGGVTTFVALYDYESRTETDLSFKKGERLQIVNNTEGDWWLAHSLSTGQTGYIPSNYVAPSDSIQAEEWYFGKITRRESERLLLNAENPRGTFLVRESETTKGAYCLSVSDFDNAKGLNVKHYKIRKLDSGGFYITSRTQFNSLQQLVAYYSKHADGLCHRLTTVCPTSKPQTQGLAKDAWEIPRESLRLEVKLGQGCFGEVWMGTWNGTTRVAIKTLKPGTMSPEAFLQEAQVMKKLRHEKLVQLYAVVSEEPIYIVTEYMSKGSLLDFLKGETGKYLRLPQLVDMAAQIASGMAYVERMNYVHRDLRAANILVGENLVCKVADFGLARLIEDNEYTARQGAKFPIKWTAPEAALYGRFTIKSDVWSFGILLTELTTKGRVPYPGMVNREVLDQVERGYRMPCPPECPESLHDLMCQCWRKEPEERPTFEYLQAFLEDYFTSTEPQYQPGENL
UniProt P41240: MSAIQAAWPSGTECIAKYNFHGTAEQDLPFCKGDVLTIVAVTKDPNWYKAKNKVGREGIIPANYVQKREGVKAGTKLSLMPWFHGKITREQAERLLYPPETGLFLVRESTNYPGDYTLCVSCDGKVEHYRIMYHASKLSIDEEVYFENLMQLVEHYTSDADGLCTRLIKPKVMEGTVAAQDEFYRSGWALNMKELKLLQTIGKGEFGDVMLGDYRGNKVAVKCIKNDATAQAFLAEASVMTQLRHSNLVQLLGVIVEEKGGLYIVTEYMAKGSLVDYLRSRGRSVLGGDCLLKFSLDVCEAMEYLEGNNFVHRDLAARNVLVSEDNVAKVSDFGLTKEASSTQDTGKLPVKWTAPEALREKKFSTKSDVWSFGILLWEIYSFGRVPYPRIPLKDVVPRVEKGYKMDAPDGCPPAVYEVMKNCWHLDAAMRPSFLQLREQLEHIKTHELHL
UniProt Q16539, whole entry: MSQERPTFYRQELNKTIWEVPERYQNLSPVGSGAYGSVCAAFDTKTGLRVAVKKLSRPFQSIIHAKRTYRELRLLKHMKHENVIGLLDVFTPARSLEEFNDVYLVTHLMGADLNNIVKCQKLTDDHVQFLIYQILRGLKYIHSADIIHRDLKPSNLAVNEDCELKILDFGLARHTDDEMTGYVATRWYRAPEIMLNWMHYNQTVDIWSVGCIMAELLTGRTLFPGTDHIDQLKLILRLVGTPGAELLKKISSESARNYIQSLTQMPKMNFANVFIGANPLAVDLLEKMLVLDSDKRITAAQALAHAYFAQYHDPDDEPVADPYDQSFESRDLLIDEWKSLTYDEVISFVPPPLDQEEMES
UniProt P22455, whole entry: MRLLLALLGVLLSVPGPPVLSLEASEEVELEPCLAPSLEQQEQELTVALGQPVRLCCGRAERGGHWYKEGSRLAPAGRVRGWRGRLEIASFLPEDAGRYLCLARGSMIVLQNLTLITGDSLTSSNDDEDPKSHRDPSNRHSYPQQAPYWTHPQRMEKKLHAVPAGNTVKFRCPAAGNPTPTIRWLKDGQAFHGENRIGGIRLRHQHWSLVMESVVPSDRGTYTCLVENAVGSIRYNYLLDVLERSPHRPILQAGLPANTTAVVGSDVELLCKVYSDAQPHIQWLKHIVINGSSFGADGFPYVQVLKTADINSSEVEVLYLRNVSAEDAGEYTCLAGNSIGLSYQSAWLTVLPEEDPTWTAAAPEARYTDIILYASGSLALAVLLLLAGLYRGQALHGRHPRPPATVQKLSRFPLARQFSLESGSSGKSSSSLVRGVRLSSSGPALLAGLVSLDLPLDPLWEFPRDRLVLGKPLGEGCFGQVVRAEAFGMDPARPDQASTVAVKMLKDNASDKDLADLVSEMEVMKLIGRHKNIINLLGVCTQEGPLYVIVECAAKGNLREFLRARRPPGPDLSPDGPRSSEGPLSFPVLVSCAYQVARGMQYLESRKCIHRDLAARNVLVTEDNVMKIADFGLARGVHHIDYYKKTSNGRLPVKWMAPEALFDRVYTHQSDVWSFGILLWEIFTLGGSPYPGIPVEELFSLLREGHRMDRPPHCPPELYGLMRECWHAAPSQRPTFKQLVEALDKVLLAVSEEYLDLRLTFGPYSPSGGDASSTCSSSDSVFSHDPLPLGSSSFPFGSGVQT

Columns and labels:
[1] = target: Hepatocyte growth factor receptor (Homo sapiens, UniProt P08581); assay: Inhibition of cMET using ATP as substrate
[2] = target: Fibroblast growth factor receptor 1 (Homo sapiens, UniProt P11362); assay: Inhibition of FGFR1 using ATP as substrate
[3] = target: T1, Tyrosine-protein kinase JAK3 (Homo sapiens, UniProt P52333); assay: Inhibition of JAK3 using ATP as substrate
T1 sequence (P52333 whole entry): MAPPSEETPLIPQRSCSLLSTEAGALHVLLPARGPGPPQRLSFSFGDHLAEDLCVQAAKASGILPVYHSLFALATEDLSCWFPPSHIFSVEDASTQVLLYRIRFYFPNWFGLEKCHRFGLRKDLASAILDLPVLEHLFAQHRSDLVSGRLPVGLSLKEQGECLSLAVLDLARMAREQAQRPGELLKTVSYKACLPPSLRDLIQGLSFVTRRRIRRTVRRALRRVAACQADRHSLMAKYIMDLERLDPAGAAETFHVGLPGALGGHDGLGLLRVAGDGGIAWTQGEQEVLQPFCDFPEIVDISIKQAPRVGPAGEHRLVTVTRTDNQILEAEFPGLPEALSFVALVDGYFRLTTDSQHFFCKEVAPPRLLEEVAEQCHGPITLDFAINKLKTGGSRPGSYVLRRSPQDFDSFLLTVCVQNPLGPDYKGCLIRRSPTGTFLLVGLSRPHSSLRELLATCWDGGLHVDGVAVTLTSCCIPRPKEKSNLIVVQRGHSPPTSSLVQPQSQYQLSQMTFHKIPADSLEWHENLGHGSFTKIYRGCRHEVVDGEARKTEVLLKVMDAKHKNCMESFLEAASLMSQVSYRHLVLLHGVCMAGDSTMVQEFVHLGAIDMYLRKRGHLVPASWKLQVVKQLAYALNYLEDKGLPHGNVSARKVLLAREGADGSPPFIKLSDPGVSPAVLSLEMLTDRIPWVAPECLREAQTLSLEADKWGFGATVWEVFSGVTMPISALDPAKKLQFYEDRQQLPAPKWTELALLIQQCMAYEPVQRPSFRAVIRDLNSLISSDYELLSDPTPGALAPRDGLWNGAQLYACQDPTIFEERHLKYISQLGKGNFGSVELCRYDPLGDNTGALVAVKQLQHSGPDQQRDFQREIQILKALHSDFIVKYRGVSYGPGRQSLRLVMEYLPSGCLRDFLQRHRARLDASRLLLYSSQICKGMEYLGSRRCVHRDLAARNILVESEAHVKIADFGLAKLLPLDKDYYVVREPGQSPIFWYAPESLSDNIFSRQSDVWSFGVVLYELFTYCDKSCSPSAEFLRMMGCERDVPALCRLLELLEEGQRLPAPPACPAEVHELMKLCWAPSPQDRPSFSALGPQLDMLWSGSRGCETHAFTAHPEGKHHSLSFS

[4] = target: T2, Tyrosine-protein kinase ZAP-70 (Homo sapiens, UniProt P43403); assay: Inhibition of ZAP70 using ATP as substrate
T2 sequence (P43403 whole entry): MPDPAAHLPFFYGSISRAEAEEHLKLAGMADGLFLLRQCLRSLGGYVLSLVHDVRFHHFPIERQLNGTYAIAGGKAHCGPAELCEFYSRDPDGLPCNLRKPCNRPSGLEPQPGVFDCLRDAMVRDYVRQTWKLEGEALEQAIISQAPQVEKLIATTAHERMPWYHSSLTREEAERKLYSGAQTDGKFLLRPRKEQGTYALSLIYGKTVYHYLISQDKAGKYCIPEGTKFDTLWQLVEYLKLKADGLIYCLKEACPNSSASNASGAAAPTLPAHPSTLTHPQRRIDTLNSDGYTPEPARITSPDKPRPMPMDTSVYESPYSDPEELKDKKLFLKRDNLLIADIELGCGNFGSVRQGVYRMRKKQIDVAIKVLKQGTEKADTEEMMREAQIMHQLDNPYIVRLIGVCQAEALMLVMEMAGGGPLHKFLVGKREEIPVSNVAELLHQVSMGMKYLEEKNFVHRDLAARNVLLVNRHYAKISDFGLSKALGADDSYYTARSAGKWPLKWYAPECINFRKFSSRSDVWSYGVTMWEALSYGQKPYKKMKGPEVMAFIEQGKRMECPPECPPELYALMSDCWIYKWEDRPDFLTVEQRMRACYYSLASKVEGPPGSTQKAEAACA

[5] = target: Tyrosine-protein kinase SYK (Homo sapiens, UniProt P43405); assay: Inhibition of SYK using ATP as substrate
[6] = target: Ephrin type-A receptor 4 (Homo sapiens, UniProt P54764); assay: Inhibition of EphA4 using ATP as substrate
[7] = target: T3, Tyrosine-protein kinase receptor UFO (Homo sapiens, UniProt P30530); assay: Inhibition of AXL using ATP as substrate
T3 sequence (P30530 whole entry): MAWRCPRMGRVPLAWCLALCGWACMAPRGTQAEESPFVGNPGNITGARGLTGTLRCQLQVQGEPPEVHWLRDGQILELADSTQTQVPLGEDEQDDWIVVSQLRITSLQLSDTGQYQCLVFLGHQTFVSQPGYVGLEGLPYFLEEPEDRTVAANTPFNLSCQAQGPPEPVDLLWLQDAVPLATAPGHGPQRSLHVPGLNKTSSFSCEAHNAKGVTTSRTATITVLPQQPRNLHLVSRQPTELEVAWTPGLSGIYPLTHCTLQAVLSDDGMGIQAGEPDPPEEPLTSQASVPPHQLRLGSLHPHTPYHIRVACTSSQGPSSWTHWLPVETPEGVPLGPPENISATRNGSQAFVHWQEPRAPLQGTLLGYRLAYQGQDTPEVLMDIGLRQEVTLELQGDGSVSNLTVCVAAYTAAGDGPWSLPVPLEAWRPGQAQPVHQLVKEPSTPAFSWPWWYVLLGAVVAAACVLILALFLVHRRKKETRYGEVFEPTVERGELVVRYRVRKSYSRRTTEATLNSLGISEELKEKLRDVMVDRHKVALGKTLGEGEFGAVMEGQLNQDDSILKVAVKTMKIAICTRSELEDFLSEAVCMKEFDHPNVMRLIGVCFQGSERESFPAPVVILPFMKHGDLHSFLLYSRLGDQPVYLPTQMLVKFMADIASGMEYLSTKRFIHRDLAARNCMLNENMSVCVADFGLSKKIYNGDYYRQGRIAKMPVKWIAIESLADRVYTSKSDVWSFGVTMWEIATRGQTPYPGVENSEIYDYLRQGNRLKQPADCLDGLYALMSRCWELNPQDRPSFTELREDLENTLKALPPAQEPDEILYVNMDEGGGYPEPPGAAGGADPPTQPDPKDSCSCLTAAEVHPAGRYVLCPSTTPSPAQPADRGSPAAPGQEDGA

[8] = target: Fibroblast growth factor receptor 2 (Homo sapiens, UniProt P21802); assay: Inhibition of FGFR2 using ATP as substrate
[9] = target: Proto-oncogene tyrosine-protein kinase Src (Homo sapiens, UniProt P12931); assay: Inhibition of cSRC using ATP as substrate
[10] = target: T4, Ephrin type-B receptor 4 (Homo sapiens, UniProt P54760); assay: Inhibition of EphB4 using ATP as substrate
T4 sequence (P54760 whole entry): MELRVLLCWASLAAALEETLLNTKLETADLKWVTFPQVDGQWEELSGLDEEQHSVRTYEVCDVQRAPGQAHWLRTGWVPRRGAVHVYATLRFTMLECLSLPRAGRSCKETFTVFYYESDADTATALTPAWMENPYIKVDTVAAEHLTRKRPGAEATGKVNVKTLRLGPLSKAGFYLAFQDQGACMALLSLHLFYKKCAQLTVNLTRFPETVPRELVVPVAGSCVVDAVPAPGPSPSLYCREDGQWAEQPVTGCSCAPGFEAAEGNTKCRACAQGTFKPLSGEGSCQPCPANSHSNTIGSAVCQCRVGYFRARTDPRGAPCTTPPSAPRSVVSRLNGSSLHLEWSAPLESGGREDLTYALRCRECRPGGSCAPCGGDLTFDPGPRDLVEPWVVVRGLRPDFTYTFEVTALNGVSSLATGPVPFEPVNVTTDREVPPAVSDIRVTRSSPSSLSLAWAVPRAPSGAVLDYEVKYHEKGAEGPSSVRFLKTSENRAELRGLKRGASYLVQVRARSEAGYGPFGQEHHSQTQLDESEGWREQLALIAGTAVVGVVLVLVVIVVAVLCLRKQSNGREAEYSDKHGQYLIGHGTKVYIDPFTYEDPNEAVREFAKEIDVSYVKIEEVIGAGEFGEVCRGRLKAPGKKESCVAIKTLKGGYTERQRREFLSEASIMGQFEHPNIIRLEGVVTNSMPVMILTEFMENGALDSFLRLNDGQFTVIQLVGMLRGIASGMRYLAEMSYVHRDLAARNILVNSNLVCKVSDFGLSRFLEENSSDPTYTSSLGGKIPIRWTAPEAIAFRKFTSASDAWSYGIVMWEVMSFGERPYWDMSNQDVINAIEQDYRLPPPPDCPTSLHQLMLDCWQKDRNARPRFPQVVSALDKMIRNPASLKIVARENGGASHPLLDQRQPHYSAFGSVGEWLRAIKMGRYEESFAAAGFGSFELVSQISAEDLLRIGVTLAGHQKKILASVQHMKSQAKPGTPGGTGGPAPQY

[11] = target: Cyclin-dependent kinase 2 (Homo sapiens, UniProt P24941); assay: Inhibition of CDK2 using ATP as substrate
[12] = target: Tyrosine-protein kinase CSK (Homo sapiens, UniProt P41240); assay: Inhibition of CSK using ATP as substrate
[13] = target: Mitogen-activated protein kinase 14 (Homo sapiens, UniProt Q16539); assay: Inhibition of p38alpha using ATP as substrate
[14] = target: Fibroblast growth factor receptor 4 (Homo sapiens, UniProt P22455); assay: Inhibition of FGFR4 using ATP as substrate

Measured: IC50

Cn1c2c(c3ccc(Cl)c(Cl)c31)C(C#N)C1(CCNCC1)NC2=O (racemic)
> 10 µM: all assays above
